Laboratory results published in ChEMBL document CHEMBL1130764, “Synthesis of a potent wide-spectrum serotonin-, norepinephrine-, dopamine-reuptake inhibitor (SNDRI) and a species-selective dopamine-reuptake inhibitor based on the gamma-amino alcohol functional group” (Bioorg Med Chem Lett, 1998).

Protein sequences, listed by entry. Tags and fused reporters are not part of them.
UniProt P31652, whole entry: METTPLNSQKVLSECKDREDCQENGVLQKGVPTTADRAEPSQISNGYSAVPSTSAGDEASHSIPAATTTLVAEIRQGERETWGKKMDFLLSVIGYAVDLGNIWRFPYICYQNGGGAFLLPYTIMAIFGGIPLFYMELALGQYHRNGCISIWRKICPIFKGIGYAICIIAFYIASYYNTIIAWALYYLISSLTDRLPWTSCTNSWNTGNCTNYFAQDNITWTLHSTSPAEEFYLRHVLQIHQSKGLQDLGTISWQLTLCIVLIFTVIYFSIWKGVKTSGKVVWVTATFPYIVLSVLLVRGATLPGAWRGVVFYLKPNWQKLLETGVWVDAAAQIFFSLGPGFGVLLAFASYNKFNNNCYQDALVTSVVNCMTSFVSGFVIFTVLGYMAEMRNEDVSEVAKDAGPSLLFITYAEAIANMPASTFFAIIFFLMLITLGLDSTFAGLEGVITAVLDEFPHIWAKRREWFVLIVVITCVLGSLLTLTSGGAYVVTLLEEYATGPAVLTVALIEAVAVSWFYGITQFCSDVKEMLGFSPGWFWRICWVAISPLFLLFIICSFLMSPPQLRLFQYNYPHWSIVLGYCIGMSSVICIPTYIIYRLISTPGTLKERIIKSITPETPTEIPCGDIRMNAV
UniProt P31645, whole entry: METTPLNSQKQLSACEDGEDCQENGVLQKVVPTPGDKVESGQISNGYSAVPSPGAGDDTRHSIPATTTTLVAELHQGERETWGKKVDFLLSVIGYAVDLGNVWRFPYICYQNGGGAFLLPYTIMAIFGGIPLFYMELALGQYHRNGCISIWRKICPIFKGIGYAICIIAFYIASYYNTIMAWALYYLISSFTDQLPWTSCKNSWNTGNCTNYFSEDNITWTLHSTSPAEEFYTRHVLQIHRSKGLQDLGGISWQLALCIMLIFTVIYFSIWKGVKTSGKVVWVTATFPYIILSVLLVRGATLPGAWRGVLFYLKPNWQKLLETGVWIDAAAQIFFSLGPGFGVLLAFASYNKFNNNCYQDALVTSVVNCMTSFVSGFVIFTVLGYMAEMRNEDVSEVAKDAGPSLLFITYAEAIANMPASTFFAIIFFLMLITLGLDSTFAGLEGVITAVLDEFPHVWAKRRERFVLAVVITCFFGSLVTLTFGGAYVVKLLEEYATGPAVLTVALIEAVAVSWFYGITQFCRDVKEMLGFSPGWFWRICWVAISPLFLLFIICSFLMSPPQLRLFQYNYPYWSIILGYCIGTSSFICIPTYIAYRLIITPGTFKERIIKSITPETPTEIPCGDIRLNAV

Tests used:
[1] = molecular target: Sodium-dependent serotonin transporter (Rattus norvegicus, UniProt P31652); test: Inhibition of [3H]5-HT reuptake into rat frontal cortex synaptosomes; type: subcellular, Brain
[2] = molecular target: T1, Sodium-dependent serotonin transporter (Homo sapiens, UniProt P31645)
[3] = molecular target: T1, Sodium-dependent serotonin transporter; test: Equilibrium dissociation constant (KD) for Competitive binding between [3H]- imipramine and the compound at human transporter -hSERT

| Structure (SMILES) | pKi [1] | pKd [2] | pKd [3] |
| --- | --- | --- | --- |
| CCOc1ccccc1OCC1CNCCO1 (racemic) [VILOXAZINE] | 4.78 | 4.76 |  |
| CC(C)(C)[C@H](O)[C@@H](CN)c1ccc2ccccc2c1 (racemic) |  | 8.21 |  |
| CN(C)C[C@@H](c1ccccc1)[C@@H](O)c1ccccc1 (racemic) | 6.68 |  | 7.32 |
| NC[C@@H](c1ccccc1)[C@@H](O)c1ccccc1 (racemic) | 5.56 | 5.52 |  |
| CN(C)C[C@@H](c1ccccc1)[C@@H](O)C(C)(C)C (racemic) | 7.22 | 7.40 |  |
| NC[C@@H](c1ccc2ccccc2c1)[C@@H](O)c1ccccc1 (racemic) | 7.57 |  |  |
| CN(C)C[C@@H](c1ccc2ccccc2c1)[C@@H](O)c1ccccc1 (racemic) |  | 8.25 |  |
| COc1ccc([C@H](CN(C)C)[C@@H](O)C2CCCCC2)cc1 (racemic) | 7.52 | 7.52 |  |
| Cc1cc(C)c([C@H](O)[C@@H](CN(C)C)c2ccccc2)c(C)c1 (racemic) | 7.24 | 8.07 |  |
| CN(C)C[C@@H](c1ccc2ccccc2c1)[C@@H](O)C(C)(C)C (racemic) |  | 8.92 |  |
| COc1ccc([C@H](CN)[C@@H](O)C2CCCCC2)cc1 (racemic) | 6.79 | 7.12 |  |
| CC(C)(C)[C@H](O)[C@@H](CN)c1ccccc1 (racemic) | 6.15 | 5.96 |  |
| Cc1cc(C)c([C@H](O)[C@@H](CN)c2ccccc2)c(C)c1 (racemic) | 6.19 | 6.93 |  |

pKd, pKi: −log10 of the molar value.
